Bioassay records deposited in PubChem BioAssay by Broad Institute.
A selection: hits, their analogues and other compounds. The true share with any hit is near 1.5%.
PglD inh = inhibitors of Campylobacter jejuni PglD acetyltransferase. purified PglD enzyme, DTNB colorimetric CoA detection. inhibition, % at 12.5 µM. 360,000 compounds, 0.098% hits. AID 602405; in the data active = inhibition above about 16%, passing the limit was not always enough
Casp6 inh = inhibitors of human caspase-6; P55212; AID 686996; inhibition, % at 12.5 µM; purified caspase-6, Z-VEID-R110 cleavage fluorescence; 350,000 compounds, 0.53% hits;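 active = mean inhibition across replicates at least about 35%, with every replicate also reaching that limit, limit read from the data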;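 also: 0% = median of neutral control wells and 100% = no fluorescence left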
RAD54 branch = inhibitors of human RAD54 branch migration; Q92698; RAD54 Holliday junction branch migration, FAM/BHQ fluorescence; inhibition, % at 10.4 µM; 360,000 compounds, 0.14% hits;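 active = mean normalized replicate activity at least 40 and at least half of replicates scoring 40 or more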;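 also: 0% = median of neutral control wells and 100% = median of positive control wells; inhibitors cause a drop in the FAM fluorescence signal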
GSIS activator = primary screen for activators of insulin secretion dependent on glucose, INS-1E cells, GLuc reporter luminescence; INS-1E GLuc reporter insulin secretion, 2-3 h; activation, % at 16.6 µM; 370,000 compounds, 0.61% hits; AID 743287;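 active = lowest replicate activation of at least 40%, so every replicate reaches that level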;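 also: 0% = median of neutral control wells and 100% = median of IBMX positive control wells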
RAD52 inh = blocks human RAD52 DNA annealing; P43351; recombinant RAD52 DNA annealing, FRET fluorescence; inhibition, % at 18.7 µM; 360,000 compounds, 0.46% hits; AID 651710;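 active = every replicate showing at least 50% inhibition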
Yeast UUG start-1 = modulators of start codon recognition fidelity in yeast; AID 602363; activity score, % at 18.7 µM; S. cerevisiae UUG-firefly luciferase reporter, luminescence/redox ratio; actives 0.13% (n = 350,000);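 active = replicate mean at a twofold rise or more, about +100% in these data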;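 note: firefly luciferase made from a UUG start codon reports start codon fidelity; reporter light over untreated wells divided by growth signal over untreated wells; some hits fall short of that in this replicate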
Yeast UUG start-2 = modulators of start codon recognition fidelity in yeast; shares compounds with Yeast UUG start-1; S. cerevisiae UUG-start firefly luciferase, luminescence, 4 h; 100% means double the DMSO signal; activation, % at 38 µM; 540 tested, under 10 active; AID 652061;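 active = signal increase whose fitted curve reaches an absolute level of 40 at a concentration under 10 µM; inactive = activity opposite to the expected increase, or the rest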
PglD confirm = blocks Campylobacter jejuni PglD acetyltransferase activity. 320 tested, under 10 active. AID 743156. shares compounds with PglD inh. Purified C. jejuni PglD, DTNB absorbance 412 nm. inhibition, % at 20 µM;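 active = mean inhibition across replicates of at least 20% with every single replicate also at 20% or more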;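 also: initial rate of CoA release by acetyl transfer from AcCoA to the UDP-4-amino sugar; 0% = median of neutral control wells and 100% = median of positive control wells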
* hit, by the source's call; i = inactive; . = no result; ! = not confirmed by another sample.

SMILES | PglD inh | Casp6 inh | RAD54 branch | GSIS activator | RAD52 inh | Yeast UUG start-1 | Yeast UUG start-2 | others
COCc1cc(C)nc(SCC(=O)NCC2CCCO2)c1C#N (configuration not stated) | -5 | -5 | 4 | 0 | -5 | -2 | .
COc1ccc(C(=O)c2cnc[nH]2)cc1 | -2 | 0 | 11 | 9 | -14 | 171* | 6
O=C1C(c2ccc(F)cc2)N(Cc2ccc3c(c2)OCO3)C(=O)CN1C1CCCC1 (configuration not stated) | . | . | . | -5 | . | . | .
CCCCCn1c(SCCN2CCOCC2)nc2c1c(=O)[nH]c(=O)n2C | -6 | . | -5 | . | . | 361* | -8
COc1ccc(Cc2nnc(SCC(=O)N(C)c3ccccc3)o2)cc1 | -1 | -68 | -4 | 32 | -10 | -5 | .
CC(C)N(C[C@H]1[C@H](c2ccccc2)[C@@H](CO)N1S(C)(=O)=O)C(=O)CN(C)C | -1 | 3 | -3 | 6 | -19 | 164* | i
CC(C)N(C[C@H]1[C@H](c2ccccc2)[C@H](CO)N1S(C)(=O)=O)C(=O)CN(C)C | -5 | -2 | 7 | 8 | -4 | 5 | .
Cc1ccc2nc(C(=O)N3CCCC(Nc4ccc(F)cc4)C3)cn2c1 (configuration not stated) | 7 | 3 | 3 | 20 | -19 | -19 | .
NC(=O)C[N+]1(CC#CC(O)(c2ccccc2)c2ccccc2)CCCC1 | . | -3 | . | 3 | -13 | . | -4
CCc1ccccc1N1C(=O)C2CC=CCC2C1=O (configuration not stated) | 5 | . | 6 | 2 | . | -13 | .
O=C(COC(=O)/C=C/c1ccc2c(c1)OCO2)Nc1ccc(S(=O)(=O)N2CCCC2)cc1 | . | -1 | . | 6 | -51 | . | .
COc1ccc(CC(=O)Nc2ccc(S(=O)(=O)N3CCCC3)cc2)cc1OC | 1 | 1 | 0 | 15 | -9 | -9 | .
O=C(COC(=O)Cc1ccc2c(c1)OCCO2)Nc1ccc(S(=O)(=O)N2CCCC2)cc1 | 0 | . | 4 | . | . | -5 | 0
COc1cc(CC(=O)OCC(=O)Nc2ccc(S(=O)(=O)N3CCCC3)cc2)cc(OC)c1OC | 5 | . | 8 | . | . | 652* | 3
Cc1ccc(CN2C(=O)CCC2C(=O)N2CCN(c3ccccc3)CC2)cc1 (configuration not stated) | . | -1 | . | -12 | -13 | . | .

Overlap with the part before: two compounds; new compounds follow.
SMILES | PglD inh | Casp6 inh | RAD54 branch | GSIS activator | RAD52 inh | Yeast UUG start-1 | Yeast UUG start-2 | others
COc1cc(CC(=O)OCC(=O)Nc2ccc(S(=O)(=O)N3CCCC3)cc2)cc(OC)c1OC | 5 | . | 8 | . | . | 652* | 3
Cc1ccc(CN2C(=O)CCC2C(=O)N2CCN(c3ccccc3)CC2)cc1 (configuration not stated) | . | -1 | . | -12 | -13 | . | .
COc1ccc2c3c(n(C)c2c1)[C@H](CO)N(Cc1ccc(F)cc1)CC31CN(CC2CC2)C1 | . | -1 | . | -5 | 7 | . | .
CC(C)C#Cc1cnc2c(c1)C(=O)N([C@@H](C)CO)C[C@H](C)[C@@H](CN(C)S(=O)(=O)c1cn(C)cn1)O2 | 2 | -2 | -2 | -9 | -2 | 0 | .
CCN(CC)S(=O)(=O)c1ccc(C)c(NC(=O)COC(=O)C=C(C)C)c1 | 7 | -1 | -6 | -10 | 7 | 180* | 1
CCOc1ncccc1C(=O)OCC(=O)Nc1cc(S(=O)(=O)N(CC)CC)ccc1C | . | -1 | . | -14 | -9 | . | .
COc1ccc(S(=O)(=O)N(CC(=O)NCC2CCCO2)c2ccc(Cl)cc2)cc1 (configuration not stated) | 5 | 2 | 6 | 0 | -14 | -9 | .
Cc1c(C(=O)OCC(=O)c2ccc3c(c2)OCCO3)oc2ccccc12 | 0 | . | -7 | . | . | -5 | 3
Cc1cc(C(=O)OCC(=O)c2ccc3c(c2)OCCO3)c(C)o1 | 0 | . | 4 | . | . | -22 | .
CCOc1ccccc1NC(=O)NCCc1c[nH]c2ccccc12 | 1 | 0 | 2 | -1 | -7 | 1 | .
COc1ccc(C2=CSC3=NCCN23)cc1 | 10 | -5 | -2 | 11 | 0 | -14 | .
Cn1nc(CC(=O)NC2CCCCC2)c2ccccc2c1=O | . | . | . | -1 | . | . | -4
Cn1nc(C(=O)NC2CCCC2)c2ccccc2c1=O | 3 | 2 | 7 | 12 | -14 | -13 | .
Cn1nc(-c2ccc(C(=O)NC3CCCCC3)cc2)c2ccccc2c1=O | -2 | 0 | 2 | 3 | -14 | -26 | .
Cn1nc(CC(=O)NC2CCCCCC2)c2ccccc2c1=O | 4 | 0 | 11 | . | 2 | -35 | 11
CCOc1ccc(C(=O)NCC(C)NC(=O)c2ccc(OCC)cc2)cc1 (configuration not stated) | 4 | 4 | -4 | 7 | -1 | 109* | 10
CNC(=O)C[C@H]1CC[C@@H]2[C@@H](COc3ccc(NC(=O)Nc4ccccc4OC)cc3C(=O)N2C)O1 | -1 | 2 | 3 | 1 | 5 | 14 | .

Taken from above (3 entries):
SMILES | PglD inh | Casp6 inh | RAD54 branch | GSIS activator | RAD52 inh | Yeast UUG start-1 | Yeast UUG start-2 | others
Cn1nc(CC(=O)NC2CCCCCC2)c2ccccc2c1=O | 4 | 0 | 11 | . | 2 | -35 | 11
CCOc1ccc(C(=O)NCC(C)NC(=O)c2ccc(OCC)cc2)cc1 (configuration not stated) | 4 | 4 | -4 | 7 | -1 | 109* | 10
CNC(=O)C[C@H]1CC[C@@H]2[C@@H](COc3ccc(NC(=O)Nc4ccccc4OC)cc3C(=O)N2C)O1 | -1 | 2 | 3 | 1 | 5 | 14 | .

Remaining list, next part:
SMILES | PglD inh | Casp6 inh | RAD54 branch | GSIS activator | RAD52 inh | Yeast UUG start-1 | Yeast UUG start-2 | others
CCOC(=O)C1CCN(c2c(NCCCN(CC)c3ccccc3)c(=O)c2=O)CC1 | -2 | . | -5 | 7 | . | 0 | .
CCN(CCCNc1cc2c(c(N)c1S(=O)(=O)O)C(=O)c1ccccc1C2=O)c1ccccc1 | -1 | 15 | -3 | -12 | -52 | 135* | -21
CCN(CC)CCNC(=O)C(C)c1nn(C)c(=O)c2ccccc12 (configuration not stated) | 2 | . | -9 | . | . | 5 | -5
CCCCn1nc(CC(=O)NCCN(CC)CC)c2ccccc2c1=O | . | 1 | . | 3 | -1 | . | -6
COc1ccc(-c2ccc3c(c2)O[C@H](CN(C)CC2CC2)[C@H](C)CN([C@H](C)CO)S3(=O)=O)cc1 | . | . | . | 6 | . | -4 | .
CCN(C[C@H]1[C@@H](c2ccccc2)[C@@H](CO)N1C(C)=O)C(=O)c1ccccn1 | 0 | -2 | 8 | 5 | -14 | 127* | i
O=[N+]([O-])c1ccc(O)c(C=Nc2cccc3ccccc23)c1 | 0 | -1 | -5 | -6 | -11 | -9 | .
O=[N+]([O-])c1ccc(O)c(C=Nc2cccc3ncccc23)c1 | 23* | 0 | 5 | 2 | -27 | -15 | . | PglD confirm=9
CC(C)NC(=O)N(C)C[C@H]1Oc2cc(C#Cc3ccc(F)cc3)ccc2S(=O)(=O)N([C@H](C)CO)C[C@H]1C | 21*! | 4 | -9 | -17 | 14 | 9 | . | PglD confirm=10
C[C@@H]1CCCCO[C@H](CN(C)S(=O)(=O)c2ccc(F)cc2)[C@@H](C)CN([C@@H](C)CO)C(=O)c2cc(NS(=O)(=O)c3cccs3)ccc2O1 | 0 | 1 | -2 | -25 | -72 | -6 | .
CCOC(=O)C(Cc1c(F)cccc1Cl)c1ccnc2nc(N)nn12 (configuration not stated) | . | . | . | -7 | 5 | . | .
CCCOc1ccc(S(=O)(=O)NCCN2CCOCC2)c2ccccc12 | 23* | . | 0 | . | . | 2 | . | PglD confirm=1
CCOc1ccc(S(=O)(=O)NCCN2CCOCC2)c2ccccc12 | -7 | . | 1 | . | . | -12 | .
CCOc1nc(-c2ccccc2)ccc1-c1noc(-c2cccs2)n1 | 21* | . | -2 | . | . | -19 | . | PglD confirm=-9
